These results are taken from patent publication US20040191826A1.

In one assay the target is DPP8/V5/His (human) (UniProt Q6V1X1). Briefly: cell-based or functional assay.
In another assay the target is DPPIV/V5/His (human) (UniProt P27487). Put plainly: cell-based or functional assay.

For Aprotinin (from UniProt P00974 36-93), the Residual activity (% of control), H-Ala-Pro-pNA hydrolysis, inhibitor at 4 ug/mL in the assay with DPP8/V5/His (human) was 47 % of control. Moreover, in the assay with DPPIV/V5/His (human), the Residual activity (% of control), H-Gly-Pro-pNA hydrolysis, inhibitor at 4 ug/mL was 81 % of control.
